The source of these data is patent publication US20260184748A1, “COMPOSITIONS COMPRISING OCTADECANEUROPEPTIDES (ODN) AND SYNTHETIC DERIVATIVES THEREOF AND METHODS OF USE FOR MODULATION OF FOOD INTAKE, OBESITY, BODY WEIGHT, NAUSEA, AND EMESIS” (The Trustees of the University of Pennsylvania, priority 2022, published 2026).

Sequences of proteins named here, by UniProt entry; tags and fusion partners are left off. A change or cut given only in a name is not applied to a line headed by its entry.
UniProt P48146: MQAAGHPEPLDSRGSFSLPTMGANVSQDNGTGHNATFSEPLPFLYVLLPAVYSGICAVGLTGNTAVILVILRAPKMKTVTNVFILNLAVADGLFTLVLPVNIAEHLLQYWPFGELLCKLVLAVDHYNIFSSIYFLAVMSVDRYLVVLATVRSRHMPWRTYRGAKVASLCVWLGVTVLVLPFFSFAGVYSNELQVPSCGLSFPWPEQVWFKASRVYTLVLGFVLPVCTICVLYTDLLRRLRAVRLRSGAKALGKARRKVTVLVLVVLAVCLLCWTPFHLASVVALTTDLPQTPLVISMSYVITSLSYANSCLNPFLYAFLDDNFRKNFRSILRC

Each structure is given as a SMILES string.

Holding throughout (test): Arrestin agonist mode
Type in all cases: cell-based
Details in all cases: read-out: RC50 (the source's name)

Assay [1] has as its target T1, F2R (Homo sapiens, UniProt P25116).
T1 sequence (P25116 22-425): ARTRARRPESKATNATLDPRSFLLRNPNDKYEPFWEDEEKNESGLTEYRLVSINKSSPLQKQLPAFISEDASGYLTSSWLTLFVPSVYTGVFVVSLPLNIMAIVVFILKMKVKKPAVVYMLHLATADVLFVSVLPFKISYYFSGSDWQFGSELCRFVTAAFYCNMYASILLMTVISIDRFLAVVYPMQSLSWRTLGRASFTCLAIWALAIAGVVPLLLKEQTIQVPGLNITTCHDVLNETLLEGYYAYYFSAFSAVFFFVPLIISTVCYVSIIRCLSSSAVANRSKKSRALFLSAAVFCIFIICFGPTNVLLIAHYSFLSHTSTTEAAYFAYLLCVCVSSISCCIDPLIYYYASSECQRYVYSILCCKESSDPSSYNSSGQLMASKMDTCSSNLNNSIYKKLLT

In assay [2] the target is T2, NPBWR1 (Homo sapiens, UniProt P48145).
T2 sequence (P48145 1-328): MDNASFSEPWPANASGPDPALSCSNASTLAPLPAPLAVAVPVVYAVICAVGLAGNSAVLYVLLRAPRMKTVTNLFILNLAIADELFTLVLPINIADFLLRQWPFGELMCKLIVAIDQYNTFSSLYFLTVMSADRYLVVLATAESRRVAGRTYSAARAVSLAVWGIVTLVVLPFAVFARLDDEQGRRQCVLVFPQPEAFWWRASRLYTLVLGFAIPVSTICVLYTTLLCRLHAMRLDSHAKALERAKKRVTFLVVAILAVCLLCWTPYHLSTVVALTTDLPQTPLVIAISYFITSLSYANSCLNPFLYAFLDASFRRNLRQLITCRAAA

The target of assay [3] is NPBWR2 (Homo sapiens, UniProt P48146).

Turning to `CC(C)C[C@H](NC(=O)[C@H](CC(C)C)NC(=O)[C@H](Cc1ccccc1)NC(=O)[C@@H](N)[C@@H](C)O)C(=O)N[C@@H](CCCNC(=N)N)C(N)=O` [TFLLR-NH2], the EC50 in assay [1] came to 14500 nM. Take `CSCC[C@H](NC(=O)[C@H](CC(C)C)NC(=O)[C@H](CC(C)C)NC(=O)CNC(=O)[C@H](C)NC(=O)[C@H](C)NC(=O)[C@H](CCCNC(=N)N)NC(=O)CNC(=O)[C@@H](NC(=O)[C@@H](NC(=O)[C@H](Cc1c[nH]cn1)NC(=O)[C@H](Cc1ccc(O)cc1)NC(=O)[C@H](CCCNC(=N)N)NC(=O)[C@@H]1CCCN1C(=O)[C@H](CO)NC(=O)[C@H](C)NC(=O)[C@@H](NC(=O)[C@H](Cc1c[nH]cn1)NC(=O)[C@H](CCCCN)NC(=O)[C@H](Cc1ccc(O)cc1)NC(=O)[C@@H](N)Cc1c[nH]c2ccccc12)C(C)C)[C@@H](C)O)C(C)C)C(=O)NCC(=O)N[C@@H](CC(C)C)C(=O)O`: the EC50 is 2.17 nM in assay [2] and 3.62 nM in assay [3].
